Measured values taken from article PMC6179291.

Target: p21-binding domain (PDB) of the Rac effector protein p21 activated kinase (PAK), on beads (UniProt Q13153)
Assay: pull-down; PAK-PDB on beads (5 μg) with 5 μg GTPγS-loaded Rac1 in 500 μl pulldown buffer (25 mM Tris-HCl pH 8.0, 40 mM NaCl, 30 mM MgCl2, 1 mM DTT, 1% Igepal CA-630), 1 hour at 4°C; three washes; eluted Rac1 detected by western blot with anti-Rac1; intensities normalised to loading controls

- percent less GTP activated (pulled down by PAK-PDB) than wild type Rac1: 50%
Substance: Rac1(G30E) (residues 1-177), GTPγS-loaded (from UniProt P63000 1-177) (domain or fragment; other documents disagree on this pair)
